The source of these data is patent publication US11554172B2, “Phosphonate linkers and their use to facilitate cellular retention of compounds” (priority 2016, dated 2023).

Protein sequences, listed by entry. Tags and fused reporters are not part of them. Lines headed by an entry give the natural chain unless they say otherwise; changes in a name come on top.
UniProt P04150: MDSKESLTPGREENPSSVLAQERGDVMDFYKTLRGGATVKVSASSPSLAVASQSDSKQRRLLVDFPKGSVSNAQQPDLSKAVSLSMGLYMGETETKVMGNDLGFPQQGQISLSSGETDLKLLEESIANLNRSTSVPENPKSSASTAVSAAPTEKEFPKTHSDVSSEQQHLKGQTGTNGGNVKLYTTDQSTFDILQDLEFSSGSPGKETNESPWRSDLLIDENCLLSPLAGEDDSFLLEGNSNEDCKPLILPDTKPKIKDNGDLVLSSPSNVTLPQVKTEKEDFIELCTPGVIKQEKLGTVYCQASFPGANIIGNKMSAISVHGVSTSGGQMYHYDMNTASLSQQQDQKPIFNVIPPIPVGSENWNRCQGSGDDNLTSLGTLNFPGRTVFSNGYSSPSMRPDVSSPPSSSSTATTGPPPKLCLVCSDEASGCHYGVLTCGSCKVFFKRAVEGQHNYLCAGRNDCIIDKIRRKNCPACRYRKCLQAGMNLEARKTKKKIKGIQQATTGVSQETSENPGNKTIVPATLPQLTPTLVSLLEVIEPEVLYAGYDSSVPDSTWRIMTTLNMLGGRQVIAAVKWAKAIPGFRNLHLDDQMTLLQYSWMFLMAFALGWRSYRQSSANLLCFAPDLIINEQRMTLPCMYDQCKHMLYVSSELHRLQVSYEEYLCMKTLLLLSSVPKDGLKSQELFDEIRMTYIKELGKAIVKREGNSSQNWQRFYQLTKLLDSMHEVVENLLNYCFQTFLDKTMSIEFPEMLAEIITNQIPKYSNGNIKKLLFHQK

Data set [1] has as its system MDCKII cells. Description: Apparent permeability in MDCKII cells. The settings on record: Papp, average of A to B and B to A, 1 μM test compound, t=3 hr.
In data set [2] the target is GR full length protein (glucocorticoid receptor) (Homo sapiens (Human), UniProt P04150). The experiment in a line: PolarScreen Glucocorticoid Receptor Competitor Assay (GR binding). The settings on record: fluorescence polarisation competitor assay, 2-4 hours at room temperature; read-out: GR Bind IC50. On the technique in general: Fluorescence polarisation rises when a labelled molecule tumbles more slowly, as on binding a larger partner.

Broadly, the IC50 is the concentration that gives 50% inhibition.

On to “(6-(3-((3aR,4aS,4bS,11aR,11bS,12S,13aS,13bS)-12-hydroxy-13b-(2-hydroxyacetyl)-11a,13a-dimethyl-2-propyl-4,4a,5,6,11,11a,11b,12,13,13a-decahydro-[1,3]dioxolo[4″,5″:3′,4′]cyclopenta[1′,2′:5,6]naphtho[,2-f]indazol-8(3aH,4bH,13bH)-yl)phenoxy)hexyl)phosphonic acid [Compound 27]”, for which the “MDCK Permeability (cm × 10-6/sec)” value in data set [1] came out at 1.8 cm × 10-6/sec. Besides, the IC50 in data set [2] is 2 nM.
